The subject of this series is aortic occlusion-induced ischemia/reperfusion (I/R) injury. Particulars: pig, in vivo.

sodium sulfide [Na2S]: the pulmonary toxicity entry is “some pulmonary toxicity was present”.
